This assay addresses T1, TPH1 (Mus musculus, UniProt P17532).
T1 construct: from tissue; host or cells: living mice (gut/enterochromaffin cells)
T1 sequence (P17532 1-447): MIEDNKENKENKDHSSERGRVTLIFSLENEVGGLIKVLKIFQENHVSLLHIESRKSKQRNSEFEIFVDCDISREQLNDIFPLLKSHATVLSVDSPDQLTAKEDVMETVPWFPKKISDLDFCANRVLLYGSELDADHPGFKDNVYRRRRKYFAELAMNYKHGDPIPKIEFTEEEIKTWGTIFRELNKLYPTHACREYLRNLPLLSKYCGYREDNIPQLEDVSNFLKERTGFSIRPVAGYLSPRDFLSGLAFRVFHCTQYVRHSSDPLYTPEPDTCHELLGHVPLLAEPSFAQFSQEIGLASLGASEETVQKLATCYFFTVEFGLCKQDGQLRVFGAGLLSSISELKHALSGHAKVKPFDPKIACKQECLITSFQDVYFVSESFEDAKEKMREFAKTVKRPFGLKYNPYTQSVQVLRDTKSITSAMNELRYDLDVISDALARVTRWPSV
Kind of assay: TPH1 inhibitor LX-1031 in phenethylamine-treated mice. The assay is classed as in vivo. The settings on record: LX-1031 50 mg/kg. The protocol: To study phenethylamine and tryptamine effects on 5-HT production, phenethylamine and tryptamine at a dosage of 2 mg/kg, 5 mg/kg and 10 mg/kg (dissolved in 0.5% CMC-Na, sodium carboxymethyl cellulose) were administered to mice by oral gavage. Mice treated with/without phenethylamine and tryptamine were sacrificed under isoflurane anesthesia. Biological samples including serum, duodenum, ileum, proximal colon and distal colon tissues and luminal contents in each intestinal segments were collected at indicated dosages and times and stored at −80° C. until analysis.
For the fecal pellet water content test, 1.5 mL Eppendorf tubes were pre-weighed and used to collect fecal pellets from mice immediately after defecation. The tubes were then closed to measure wet weight. […] Fecal pellet water content was measured by subtracting the dry weight from the wet weight and normalizing it to the wet pellet mass. Fecal pellets from mice were also counted within 2 h of the defecation frequency test.
Carmine red assay: Mice were administered 300 μL of 6% carmine red solution (prepared by 0.5% methylcellulose) by oral gavage to measure the GI transit time after treatment with phenethylamine at the indicated dosages. […] The total time taken for the appearance of the first red pellet after oral gavage was recorded as gut transit time.

Consider LX-1031, for which the “phenethylamine-induced increase in 5-HT levels” value (mice, phenethylamine 10 mg/kg, p<0.01) was “effectively inhibited the phenethylamine-induced increase in 5-HT levels”. In addition, for the setting “phenethylamine-treated mice, p<0.05”, the “diarrhea-like symptoms (fecal water content, GI transit time)” value is recorded as “significantly improved diarrhea-like symptoms”.

Values taken from patent publication US20240307361A1, “METHOD FOR DIAGNOSING AND TREATING IRRITABLE BOWEL SYNDROME” (Centre for Chinese Herbal Medicine Drug Development Limited, priority 2023, published 2024).
